Laboratory results published in US20090226500A1, “SUTURES AND ANTI-SCARRING AGENTS” (Angiotech Pharmaceuticals, Inc, priority 2006, published 2009).

System: nitric oxide production by macrophages (murine macrophage cell line RAW 264.7)
Assay: Nitric oxide production by macrophages
Type: cell-based
Conditions: read-out: IC50 nitric oxide (nitrite) production
[1] = Mus musculus, RAW264.7, RAW 264.7 cells stimulated with IFNγ and LPS, 24 hours

Work on `C=CCNC1=C2C[C@@H](C)C[C@H](OC)[C@H](O)[C@@H](C)/C=C(\C)[C@H](OC(N)=O)[C@@H](OC)/C=C\C=C(/C)C(=O)NC(=CC1=O)C2=O` [17-AAG, 17-allylaminogeldanamycin] yielded an IC50 (RAW 264.7 cells stimulated with IFNγ and LPS, 24 hours) of 840 nM.

With `COC1=C2C[C@@H](C)C[C@H](OC)[C@H](O)[C@@H](C)/C=C(\C)[C@H](OC(N)=O)[C@@H](OC)/C=C\C=C(/C)C(=O)NC(=CC1=O)C2=O` [geldanamycin] the IC50 [1] was 51 nM.

For `O=C(CC1NCCCC1O)Cn1cnc2cc(Br)c(Cl)cc2c1=O` (stereo not shown) [halofuginone], the IC50 (Mus musculus, RAW264.7, 24 h) was 12 nM.

With `CC(=O)O[C@H]1C(=O)[C@@]2(C)[C@H]([C@H](OC(=O)c3ccccc3)[C@]3(O)C[C@H](OC(=O)[C@H](O)[C@@H](NC(=O)c4ccccc4)c4ccccc4)C(C)=C1C3(C)C)[C@]1(OC(C)=O)CO[C@@H]1C[C@@H]2O` [paclitaxel, 5β,20-epoxy-1,2 alpha,4,7β,10β,13 alpha-hexahydroxytax-11-en-9-one-4,10-diacetate-2-benzoate-13-(alpha-phenylhippurate)] the IC50 [1] was 7 nM.

Where two headings read alike, the source gives them in different places.
